# Measurements reported in patent publication US10287286B2, “Compounds” (Takeda Pharmaceutical Company Limited, priority 2015, dated 2019).
# Sequences of proteins named here, by UniProt entry; tags and fusion partners are left off.
# UniProt Q96KS0, whole entry: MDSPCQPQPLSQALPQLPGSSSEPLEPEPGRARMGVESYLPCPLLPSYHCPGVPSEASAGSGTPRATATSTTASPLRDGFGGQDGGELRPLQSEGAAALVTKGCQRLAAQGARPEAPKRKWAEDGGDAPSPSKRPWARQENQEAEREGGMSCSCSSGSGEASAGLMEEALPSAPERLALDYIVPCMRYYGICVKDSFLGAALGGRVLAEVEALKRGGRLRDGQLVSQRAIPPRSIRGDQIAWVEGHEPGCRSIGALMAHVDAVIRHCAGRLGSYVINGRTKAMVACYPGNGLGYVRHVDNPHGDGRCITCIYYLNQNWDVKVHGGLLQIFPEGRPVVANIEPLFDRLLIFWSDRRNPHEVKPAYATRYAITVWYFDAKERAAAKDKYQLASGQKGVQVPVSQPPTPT
# Counter-ions that a name gives are not always drawn.
# Molecular target: PHD1 enzyme (residues 1-407) (Homo sapiens (Human), UniProt Q96KS0)
# Assay: PHD1 Enzyme Assay (UPLC-MS detection of hydroxylated peptide product)
# Assay type: biochemical
# Conditions: 20 nM, 60 min pre-incubation at room temperature
row,IC50,SMILES
1,0.997 µM,"N#Cc1ccc(-c2c(F)ccc3ncnn23)c(F)c1 [Example 216, 3-Fluoro-4-{6-fluoro-[1,2,4]triazolo[1,5-a]pyridin-5-yl}benzonitrile]"
2,0.376 µM,"N#Cc1ccc(-c2cc(N)nc3ncnn23)cc1 [Example 217, 4-{5-Amino-[1,2,4]triazolo[1,5-a]pyrimidin-7-yl}benzonitrile]"
3,0.233 µM,"N#Cc1ccc(-c2cc(O)cc3ncnn23)cc1 [Example 218, 4-{7-Hydroxy-[1,2,4]triazolo[1,5-a]pyridin-5-yl}benzonitrile]"
4,0.03 µM,"N#Cc1ccc(-c2cc(O)cc3ncnn23)cc1F [Example 219, 2-Fluoro-4-{7-hydroxy-[1,2,4]triazolo[1,5-a]pyridin-5-yl}benzonitrile]"
5,0.073 µM,"Cc1cc(C#N)c(F)cc1-c1cc(N)cc2ncnn12 [Example 220, 4-{7-Amino-[1,2,4]triazolo[1,5-a]pyridin-5-yl}-2-fluoro-5-methylbenzonitrile]"
6,3.09 µM,"COCc1cc(-c2ccc(C#N)cc2)n2ncnc2c1 [Example 224, 4-[7-(Methoxymethyl)-[1,2,4]triazolo[1,5-a]pyridin-5-yl]benzonitrile]"
7,1.65 µM,"CC(=O)NCc1cc(-c2ccc(C#N)cc2)n2ncnc2c1 [Example 225, N-{[5-(4-Cyanophenyl)-[1,2,4]triazolo[1,5-a]pyridin-7-yl]methyl}acetamide]"
8,0.135 µM,"N#Cc1ccc(-c2cc(CNC(=O)C3CC3)cc3ncnn23)cc1 [Example 226, N-{[5-(4-Cyanophenyl)-[1,2,4]triazolo[1,5-a]pyridin-7-yl]methyl}cyclopropanecarboxamide]"
9,0.068 µM,"Cc1c(-c2cc(N)cc3ncnn23)ccc(C#N)c1F [Example 228, 4-{7-Amino-[1,2,4]triazolo[1,5-a]pyridin-5-yl}-2-fluoro-3-methylbenzonitrile hydrochloride]"
10,3.66 µM,"Cc1nc(C#N)ccc1-c1c(F)ccc2ncnn12 [Example 229, 5-{6-Fluoro-[1,2,4]triazolo[1,5-a]pyridin-5-yl}-6-methylpyridine-2-carbonitrile]"
11,0.925 µM,"N#Cc1ccc(-c2cc(N3CCNCC3)cc3ncnn23)cc1 [Example 230, 4-[7-(Piperazin-1-yl)-[1,2,4]triazolo[1,5-a]pyridin-5-yl]benzonitrile]"
12,0.199 µM,"CC(=O)N1CCN(c2cc(-c3ccc(C#N)cc3)n3ncnc3c2)CC1 [Example 231, 4-[7-(4-Acetylpiperazin-1-yl)-[1,2,4]triazolo[1,5-a]pyridin-5-yl]benzonitrile]"
13,0.074 µM,"Cc1cc(C#N)ccc1-c1cc(NCC(O)CO)cc2ncnn12 (stereo not shown) [Example 232, 4-{7-[(2,3-Dihydroxypropyl)amino]-[1,2,4]triazolo[1,5-a]pyridin-5-yl}-3-methylbenzonitrile]"
14,0.069 µM,"CC(=O)Nc1cc(-c2ccc(C#N)c(F)c2C)n2ncnc2c1 [Example 233, N-[5-(4-Cyano-3-fluoro-2-methylphenyl)-[1,2,4]triazolo[1,5-a]pyridin-7-yl]acetamide]"
15,2.11 µM,"N#Cc1ccc(-c2cc(Cl)cc3ncnn23)c(F)c1F [Example 234, 4-{7-Chloro-[1,2,4]triazolo[1,5-a]pyridin-5-yl}-2,3-difluorobenzonitrile]"
16,1.69 µM,"Cc1cc(C#N)c(F)cc1-c1cc(Cl)cc2ncnn12 [Example 235, 4-{7-Chloro-[1,2,4]triazolo[1,5-a]pyridin-5-yl}-2-fluoro-5-methylbenzonitrile]"
17,0.065 µM,"N#Cc1ccc(-c2cc(NC=O)cc3ncnn23)cc1F [Example 236, N-[5-(4-Cyano-3-fluorophenyl)-[1,2,4]triazolo[1,5-a]pyridin-7-yl]formamide]"
18,0.089 µM,"N#Cc1ccc(-c2cccc3ncnn23)c(N)n1 [Example 237, 6-Amino-5-{[1,2,4]triazolo[1,5-a]pyridin-5-yl}pyridine-2-carbonitrile]"
19,0.096 µM,"Cc1cc(C#N)ccc1-c1cc(NC(=O)CO)cc2ncnn12 [Example 238, N-[5-(4-Cyano-2-methylphenyl)-[1,2,4]triazolo[1,5-a]pyridin-7-yl]-2-hydroxyacetamide]"
20,0.333 µM,"Cc1cc(C#N)ccc1-c1cc(NC(=O)C(O)C(F)(F)F)cc2ncnn12 (stereo not shown) [Example 239, N-[5-(4-Cyano-2-methylphenyl)-[1,2,4]triazolo[1,5-a]pyridin-7-yl]-3,3,3-trifluoro-2-hydroxypropanamide]"
21,0.46 µM,"Cc1cc(C#N)ccc1-c1cc(NC(=O)C(C)(C)O)cc2ncnn12 [Example 240, N-[5-(4-Cyano-2-methylphenyl)-[1,2,4]triazolo[1,5-a]pyridin-7-yl]-2-hydroxy-2-methylpropanamide]"
22,0.152 µM,"CC(=O)Nc1cc(-c2ccc(C#N)nc2C)n2ncnc2c1 [Example 241, N-[5-(6-Cyano-2-methylpyridin-3-yl)-[1,2,4]triazolo[1,5-a]pyridin-7-yl]acetamide]"

row,IC50,SMILES
1,0.381 µM,"CC(C)(C)OC(=O)Nc1cc(-c2ccc(C#N)cc2F)n2ncnc2c1 [Example 242, tert-Butyl N-[5-(4-cyano-2-fluorophenyl)-[1,2,4]triazolo[1,5-a]pyridin-7-yl]carbamate]"
2,1.29 µM,"N#Cc1ccc(-c2cc(NC(=O)C3CCO3)cc3ncnn23)cc1F (stereo not shown) [Example 243, N-[5-(4-Cyano-3-fluorophenyl)-[1,2,4]triazolo[1,5-a]pyridin-7-yl]oxetane-2-carboxamide]"
3,0.131 µM,"CC(=O)Nc1cc(-c2ccc(C#N)cc2F)n2ncnc2c1 [Example 244, N-[5-(4-Cyano-2-fluorophenyl)-[1,2,4]triazolo[1,5-a]pyridin-7-yl]acetamide]"
4,0.107 µM,"N#Cc1ccc(-c2cc(NC(=O)C3CC3)cc3ncnn23)c(F)c1 [Example 245, N-[5-(4-Cyano-2-fluorophenyl)-[1,2,4]triazolo[1,5-a]pyridin-7-yl]cyclopropanecarboxamide]"
5,0.065 µM,"COCCNc1cc(-c2ccc(C#N)cc2F)n2ncnc2c1 [Example 246, 3-Fluoro-4-{7-[(2-methoxyethyl)amino]-[1,2,4]triazolo[1,5-a]pyridin-5-yl}benzonitrile]"
6,0.08 µM,"CC(=O)Nc1cc(-c2cnc(C#N)cc2C)n2ncnc2c1 [Example 247, N-[5-(6-Cyano-4-methylpyridin-3-yl)-[1,2,4]triazolo[1,5-a]pyridin-7-yl]acetamide]"
7,0.035 µM,"Cc1cc(C#N)ncc1-c1cc(N)cc2ncnn12 [Example 248, 5-{7-Amino-[1,2,4]triazolo[1,5-a]pyridin-5-yl}-4-methylpyridine-2-carbonitrile]"
8,0.027 µM,"Cc1cc(C#N)ccc1-c1cc(O)cc2ncnn12 [Example 249, 4-{7-Hydroxy-[1,2,4]triazolo[1,5-a]pyridin-5-yl}-3-methylbenzonitrile]"
9,0.088 µM,"Cc1cc(C#N)ccc1-c1cc(NC(=O)C2CC2)cc2ncnn12 [Example 250, N-[5-(4-Cyano-2-methylphenyl)-[1,2,4]triazolo[1,5-a]pyridin-7-yl]cyclopropanecarboxamide]"
10,0.017 µM,"Cc1nc(C#N)ccc1-c1cc(O)cc2ncnn12 [Example 251, 5-{7-Hydroxy-[1,2,4]triazolo[1,5-a]pyridin-5-yl}-6-methylpyridine-2-carbonitrile]"
11,1.13 µM,"Cc1cc(C#N)ccc1-c1cc(N2CC3(COC3)C2)cc2ncnn12 [Example 252, 3-Methyl-4-(7-{2-oxa-6-azaspiro[3.3]heptan-6-yl}-[1,2,4]triazolo[1,5-a]pyridin-5-yl)benzonitrile]"
12,0.216 µM,"Cc1nc(C#N)ccc1-c1cc(NC(=O)C2CC2)cc2ncnn12 [Example 253, N-[5-(6-Cyano-2-methylpyridin-3-yl)-[1,2,4]triazolo[1,5-a]pyridin-7-yl]cyclopropanecarboxamide]"
13,0.751 µM,"Cc1cc(C#N)c(F)cc1-c1cc(N)nc2ncnn12 [Example 254, 4-{5-Amino-[1,2,4]triazolo[1,5-a]pyrimidin-7-yl}-2-fluoro-5-methylbenzonitrile]"
14,0.157 µM,"N#Cc1cc(F)c(-c2cc(N)cc3ncnn23)c(F)c1 [Example 255, 4-{7-Amino-[1,2,4]triazolo[1,5-a]pyridin-5-yl}-3,5-difluorobenzonitrile]"
15,0.092 µM,"Cc1cc(C#N)ccc1-c1cc(NCC2CC2)nc2ncnn12 [Example 256, 4-{5-[(Cyclopropylmethyl)amino]-[1,2,4]triazolo[1,5-a]pyrimidin-7-yl}-3-methylbenzonitrile]"
16,0.165 µM,"Cc1cc(C#N)ccc1-c1cc(N)nc2ncnn12 [Example 257, 4-{5-Amino-[1,2,4]triazolo[1,5-a]pyrimidin-7-yl}-3-methylbenzonitrile]"
17,0.152 µM,"Cc1cc(C#N)ccc1-c1cc(NC(=O)C2CC2(F)F)cc2ncnn12 (stereo not shown) [Example 258, N-[5-(4-Cyano-2-methylphenyl)-[1,2,4]triazolo[1,5-a]pyridin-7-yl]-2,2-difluorocyclopropane-1-carboxamide]"
18,0.205 µM,"N#Cc1ccc(-c2cc(N)cc3ncnn23)c(Cl)c1 [Example 259, 4-{7-Amino-[1,2,4]triazolo[1,5-a]pyridin-5-yl}-3-chlorobenzonitrile]"
19,0.029 µM,"N#Cc1ccc(-c2cc(N)cc3ncnn23)c(F)c1F [Example 260, 4-{7-Amino-[1,2,4]triazolo[1,5-a]pyridin-5-yl}-2,3-difluorobenzonitrile]"
20,0.096 µM,"CC(=O)Nc1cc(-c2ccc(C#N)cc2Cl)n2ncnc2c1 [Example 261, N-[5-(2-Chloro-4-cyanophenyl)-[1,2,4]triazolo[1,5-a]pyridin-7-yl]acetamide]"
21,0.108 µM,"CC(=O)Nc1cc(-c2cc(F)c(C#N)cc2C)n2ncnc2c1 [Example 262, N-[5-(4-Cyano-5-fluoro-2-methylphenyl)-[1,2,4]triazolo[1,5-a]pyridin-7-yl]acetamide]"
